For assay [1], the target named is purified human farnesyl protein transferase (Homo sapiens, UniProt P49354+P49356). The assay is described as follows: FPT activity: transfer of [3H] farnesyl from [3H] farnesyl pyrophosphate to biotinylated H-ras peptide (SPA). The settings on record: read-out: FPT IC50. The method, then: FPT activity was determined by measuring the transfer of [^3H] farnesyl from [^3H] farnesyl pyrophosphate to a biotinylated peptide derived from the C-terminus of H-ras (biotin-CVLS). The reaction mixture contains: 50 mM Tris pH7.7, 5 MM MgCl2, 5 μM Zn^++, 5 mM DTT, 0.1% Triton-X, 0.05 μM peptide, 0.03 nM purified human farnesyl protein transferase, 0.180 μM [^3H] farnesyl pyrophosphate, plus the indicated concentration of tricyclic compound or vehicle control in a total volume of 100 μl. The reaction was incubated in a Vortemp shaking incubator at 37° C., 45 RPM for 60 minutes and stopped with 150 μl of 0.25 M EDTA containing 0.5% BSA and 1.3 mg/ml Streptavidin SPA beads. Radioactivity was measured in a Wallach 1450 Microbeta liquid scintillation counter. Percent inhibition was calculated relative to the vehicle control.

Protein sequences, listed by entry. Tags and fused reporters are not part of them.
UniProt P49356, whole entry: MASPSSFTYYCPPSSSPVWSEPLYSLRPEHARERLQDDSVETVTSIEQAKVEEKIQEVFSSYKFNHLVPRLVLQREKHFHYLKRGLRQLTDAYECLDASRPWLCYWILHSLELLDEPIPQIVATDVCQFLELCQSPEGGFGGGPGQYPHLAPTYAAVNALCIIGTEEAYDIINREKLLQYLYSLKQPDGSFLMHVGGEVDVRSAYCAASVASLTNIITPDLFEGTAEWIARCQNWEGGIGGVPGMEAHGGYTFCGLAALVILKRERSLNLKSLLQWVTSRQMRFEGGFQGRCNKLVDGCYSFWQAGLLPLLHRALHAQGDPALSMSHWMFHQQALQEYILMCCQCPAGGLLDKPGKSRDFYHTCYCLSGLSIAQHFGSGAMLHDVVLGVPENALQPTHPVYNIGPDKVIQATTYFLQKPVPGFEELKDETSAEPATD

A further assay concerns Human tumor cells. The assay is described as follows: Soft Agar Assay (anchorage-independent growth, colony count). The settings on record: read-out: Soft Agar IC50. The method, then: Anchorage-independent growth is a characteristic of tumorigenic cell lines. Human tumor cells can be suspended in growth medium containing 0.3% agarose and an indicated concentration of a farnesyl transferase inhibitor. The solution can be overlayed onto growth medium solidified with 0.6% agarose containing the same concentration of farnesyl transferase inhibitor as the top layer. After the top layer is solidified, plates can be incubated for 10-16 days at 37° C. under 5% CO2 to allow colony outgrowth. After incubation, the colonies can be stained by overlaying the agar with a solution of MTT (3-[4,5-dimethyl-thiazol-2-yl]-2,5-diphenyltetrazolium bromide, Thiazolyl blue) (1 mg/mL in PBS). Colonies can be counted and the IC50's can be determined.

A value given as a limit tells only on which side of the number the result lay.

Broadly, the IC50 is the midpoint of a concentration-inhibition curve.

Take `CC(C)OC(=O)NC(C1=Cc2cccnc2[C@@H](N2CCN(C(=O)OC(C)C)CC2)c2ccc(Cl)cc21)c1cncn1C` (single isomer, unassigned): the IC50 was 1.2 nM in assay [1] and under 0.5 nM with Human tumor cells.

The values are drawn from US7342016B2, “Farnesyl protein transferase inhibitors as antitumor agents” (Schering Corporation, priority 2000, dated 2008).
